# From ChEMBL document CHEMBL3351619 (J Med Chem, 2014)
# Test system: 5-HT2C receptor (Homo sapiens)
# Assay: Displacement of [3H]mesulergine from 5-HT2C (unknown origin) at 1 uM after 120 mins
structure (smiles),measurement,value
O=C1Cc2ccccc2N1CC/C=C/CCN1CCc2ccccc2C1,inhibition,0%
